62 compounds from patent publication US7053101B2, “1,3,8-triazaspiro[4,5]decan-4-one derivatives useful for the treatment of ORL-1 receptor mediated disorders” (dated 2006) can be followed below.

Where only a bound is given, the exact number is not on record here.

In one test the target is human nociceptin receptor (ORL-1) (Homo sapiens, UniProt P41146). Nature of the test: nociceptin receptor binding assay (125I-Tyr14-nociceptin displacement, HEK293 cell membranes). The conditions noted are these: 10 μM test compound; inhibition of 125I-Tyr14-nociceptin binding.
In the case of `O=C1NCN(c2ccccc2)C12CCN(Cc1ccc(COc3ccccc3)cc1)CC2`, the “% Inh @ 10 μM” value worked out at 13%.
Still for that read-out and setting: as for `O=C1NCN(c2ccccc2)C12CCN(Cc1ccc(CN3CCCC3)cc1)CC2`, the figure is 16%.
In the case of `O=C1NCN(c2ccccc2)C12CCN(Cc1cccc(CN3CCCC3)c1)CC2`, the “% Inh @ 10 μM” value is listed as 11%.
For `O=C1NCN(c2ccccc2)C12CCN(Cc1ccc(CN3CCCCC3)cc1)CC2`, the “% Inh @ 10 μM” value came out at 30%.
As to `O=C1c2ccccc2C(=O)N1Cc1cccc(CN2CCC3(CC2)C(=O)NCN3c2ccccc2)c1`, the “% Inh @ 10 μM” value is listed as 28%.
In the case of `O=C1NCN(c2ccccc2)C12CCN(Cc1ccc(Cn3ccnc3)cc1)CC2`, the “% Inh @ 10 μM” value is listed as 17%.
The same measure, in the same setting: under `CN(C)c1ccc(-c2ccccc2CN2CCC3(CC2)C(=O)NCN3c2ccccc2)cc1` stands 24%.

The test is the same for the next values; noted with them: 100 μM test compound; inhibition of 125I-Tyr14-nociceptin binding.
As to `CN(C)c1ccc(-c2ccccc2CN2CCC3(CC2)C(=O)NCN3c2ccccc2)cc1`, the “% Inh @ 100 μM” value is on record as 19.5%.

Staying with this test, now noted: 125I-Tyr14-nociceptin 0.5 nM; HEK293 cell membranes.
One may read the IC50 as the concentration that gives 50% inhibition. Regarding `COc1ccc(-c2ccccc2CN2CCC3(CC2)C(=O)NCN3c2ccccc2)cc1`, the half-maximal inhibitory concentration (IC50) amounted to 305 nM.
The same measure, in the same setting: under `O=C1NCN(c2ccc(F)cc2)C12CCN(Cc1ccccc1-c1ccco1)CC2` stands 8.1 nM; under `O=C(O)CN1CN(c2ccccc2)C2(CCN(CCc3ccccc3-c3cccs3)CC2)C1=O`, 79 nM.
`O=C1NCN(c2ccccc2)C12CCN(Cc1ccc(CN3CCc4ccccc4C3)cc1)CC2` came in with an IC50 of 1800 nM.
Still for that read-out and setting: under `O=C1NCN(c2ccccc2)C12CCN(Cc1ccccc1-c1ccncc1)CC2` stands 1300 nM; under `Cc1ccc(N2CNC(=O)C23CCN(Cc2ccccc2-c2ccco2)CC3)cc1`, 30.3 nM.
On the same count and under the same terms, under `O=C1CCCCN1Cc1cccc(CN2CCC3(CC2)C(=O)NCN3c2ccccc2)c1` stands 1230 nM.
On the same count and under the same terms, under `CN1CN(c2ccccc2)C2(CCN(Cc3ccccc3-c3ccco3)CC2)C1=O` stands 3.1 nM.
`O=C1NCN(c2ccccc2)C12CCN(Cc1ccc(F)cc1-c1ccsc1)CC2` showed a half-inhibitory concentration (IC50) of 8 nM.
`O=C1NCN(c2ccccc2)C12CCN(Cc1cccc(-c3cccc(C(F)(F)F)c3)c1)CC2` registered a half-inhibitory concentration (IC50) of 264 nM.
Turning to `O=C1NCN(c2ccccc2)C12CCN(Cc1ccc(-c3ccsc3)cc1)CC2`, the IC50 was 362 nM. This IC50 and that of the compound before are within 1.5-fold of each other.
Compound `CC1CN(Cc2ccccc2-c2cccs2)CCC12C(=O)NCN2c1ccc(F)cc1` (stereo not shown) returned an IC50 of 5.7 nM.
`Cc1cc(N2CNC(=O)C23CCN(Cc2ccccc2-c2ccco2)CC3)ccc1Cl` displayed an IC50 of 48 nM. This IC50 is about 8.4-fold higher than that of the compound before.
As to `O=C1N(CCO)CN(c2ccccc2)C12CCN(Cc1ccccc1-c1cccs1)CC2`, the IC50 is 1.1 nM.
As to `O=C1NCN(c2ccccc2)C12CCN(Cc1cccc(-c3cc(Cl)cc(Cl)c3)c1)CC2`, the IC50 came to 574 nM.
Same read-out and setting: as for `O=C1NCN(c2ccccc2)C12CCN(Cc1ccc(-c3ccc(Br)cc3)o1)CC2`, the figure is 433 nM.
As to `O=C1NCN(c2ccccc2)C12CCN(CCCc1ccccc1-c1cccs1)CC2`, the half-maximal inhibitory concentration (IC50) turned out to be 3 nM.
The same measure, in the same setting: under `Cc1cc(N2CNC(=O)C23CCN(Cc2ccccc2-c2cccs2)CC3)ccc1Cl` stands 61 nM; under `O=C1NCN(c2ccc(F)cc2)C12CCN(Cc1ccccc1-c1cccs1)CC2`, 8.2 nM; under `O=C(O)CN1CN(c2ccccc2)C2(CCN(Cc3ccccc3-c3cccs3)CC2)C1=O`, 8.4 nM.
`O=C1NCN(c2ccccc2)C12CCN(Cc1ccc(COc3ccccc3)cc1)CC2` showed an IC50 greater than 10000 nM.
Compound `COC(=O)c1ncoc1CN1CN(c2ccccc2)C2(CCN(Cc3ccccc3-c3ccsc3)CC2)C1=O` gave an IC50 of 7.2 nM.
On the same count and under the same terms, as for `O=C1NCN(c2ccccc2)C12CCN(Cc1cccc(COc3cccc4c3CCCC4)c1)CC2`, the figure is 750 nM; as for `Cc1ccc(-c2cccc(CN3CCC4(CC3)C(=O)NCN4c3ccccc3)c2)cc1`, 761 nM.
With `Cc1ccc(-c2ccc(CN3CCC4(CC3)C(=O)NCN4c3ccccc3)cc2)cc1`, the half-inhibitory concentration (IC50) is 223 nM.
The same measure, in the same setting: under `O=C1NCN(c2ccccc2)C12CCN(Cc1cccc(CN3CCCc4ccccc43)c1)CC2` stands 830 nM; under `Cc1noc(C)c1-c1ccccc1CN1CCC2(CC1)C(=O)NCN2c1ccccc1`, 2700 nM.
Compound `Cc1ccc(-c2ccccc2CN2CCC3(CC2)C(=O)NCN3c2ccccc2)cc1` displayed an IC50 of 960 nM.
Regarding `O=C1NCN(c2ccccc2)C12CCN(Cc1ccc(CN3CCCC3)cc1)CC2`, the IC50 is greater than 10000 nM.
As to `O=C1NCN(c2ccccc2)C12CCN(Cc1ccccc1COc1ccccc1)CC2`, the IC50 was 603 nM.
`O=C1NCN(c2ccccc2)C12CCN(Cc1ccccc1/C=C/c1ccccc1)CC2` registered an IC50 of 158 nM.
Same read-out and setting: as for `O=C1NCN(c2ccccc2)C12CCN(Cc1cccc(-c3ccsc3)c1)CC2`, the figure is 608 nM.
Turning to `O=C1NCN(c2ccccc2)C12CCN(CCCc1ccccc1-c1ccsc1)CC2`, the IC50 worked out at 11 nM.
In the case of `O=C1NCN(c2ccccc2)C12CCN(Cc1cccc(COc3ccc(O)cc3)c1)CC2`, the IC50 was 2200 nM. This IC50 is about 200-fold higher than that of the compound before.
`O=C1NCN(c2ccccc2)C12CCN(Cc1ccc(-c3cccc(C(F)(F)F)c3)cc1)CC2` yielded an IC50 of 252 nM.
The same measure, in the same setting: as for `Cc1cc(N2CNC(=O)C23CCN(Cc2ccccc2-c2ccco2)CC3)cc(C)c1F`, the figure is 155 nM.
Same read-out and setting: under `O=C1NCN(c2ccccc2)C12CCN(Cc1cccc(COc3cccc(Cl)c3)c1)CC2` stands 610 nM.
On the same count and under the same terms, as for `O=C1NCN(c2ccccc2)C12CCN(Cc1cccc(CN3CCCC3)c1)CC2`, the figure is greater than 10000 nM; as for `O=C1NCN(c2ccccc2)C12CCN(Cc1ccccc1Oc1ccccc1)CC2`, 8.5 nM; as for `O=C1NCN(c2ccccc2)C12CCN(Cc1cccc(COc3cccc4ccccc34)c1)CC2`, 241 nM.
`O=C1NCN(c2ccccc2)C12CCN(Cc1ccc(CN3CCCCC3)cc1)CC2` gave a concentration for half-maximal inhibition (IC50) greater than 10000 nM.
The compound `Cc1cccc(-c2ncccc2CN2CCC3(CC2)C(=O)NCN3c2ccccc2)c1` returned a 50% inhibitory concentration (IC50) of 593 nM.
Compound `O=C1c2ccccc2C(=O)N1Cc1cccc(CN2CCC3(CC2)C(=O)NCN3c2ccccc2)c1` registered a 50% inhibitory concentration (IC50) greater than 10000 nM.
Still for that read-out and setting: as for `O=C1NCN(c2ccccc2)C12CCN(Cc1cccc(COc3ccc(Cl)cc3)c1)CC2`, the figure is 786 nM; as for `CN(C)CCN1CN(c2ccccc2)C2(CCN(CCc3ccccc3-c3cccs3)CC2)C1=O`, 14 nM; as for `CC1CN(Cc2ccccc2-c2ccco2)CCC12C(=O)NCN2c1ccc(F)cc1` (stereo not shown), 2.6 nM.
On the same count and under the same terms, under `O=C1NCN(c2ccccc2)C12CCN(CCCCc1ccccc1-c1cccs1)CC2` stands 110 nM; under `O=C1NCN(c2ccccc2)C12CCN(CCc1ccc(-c3cccs3)cc1)CC2`, 790 nM; under `O=C1NCN(c2ccccc2)C12CCN(Cc1ccc(OC3CCCc4ccccc43)cc1)CC2` (stereo not shown), 388 nM.
The same measure, in the same setting: as for `O=C1NCN(c2ccccc2)C12CCN(Cc1c(F)cccc1-c1ccsc1)CC2`, the figure is 13 nM.
Consider `O=C1NCN(c2ccccc2)C12CCN(Cc1ccccc1-c1ccc(Cl)s1)CC2`, for which the concentration for half-maximal inhibition (IC50) came to 201 nM.
On the same count and under the same terms, under `O=C1NCN(c2ccccc2)C12CCN(Cc1ccc(Cn3ccnc3)cc1)CC2` stands greater than 10000 nM.
`O=C1NCN(c2ccccc2)C12CCN(Cc1ccc(CN3CCCc4ccccc43)cc1)CC2` showed a concentration for half-maximal inhibition (IC50) of 1630 nM.
As for `O=C1NCN(c2ccc(F)cc2)C12CCN(CCCCc1ccccc1-c1cccs1)CC2`, the half-maximal inhibitory concentration (IC50) turned out to be 740 nM.
On the same count and under the same terms, under `CN(C)c1ccc(-c2ccccc2CN2CCC3(CC2)C(=O)NCN3c2ccccc2)cc1` stands greater than 10000 nM; under `CN1CN(c2ccccc2)C2(CCN(Cc3ccccc3-c3cccs3)CC2)C1=O`, 4.8 nM; under `N#Cc1ccc(-c2ccccc2CN2CCC3(CC2)C(=O)NCN3c2ccccc2)s1`, 1300 nM.
The same measure, in the same setting: under `O=C1NCN(c2ccccc2)C12CCN(Cc1ccccc1-c1ccc[nH]1)CC2` stands 54 nM.
Take `O=C1NCN(c2ccccc2)C12CCN(Cc1cccc(COc3ccccc3)c1)CC2`: the IC50 was determined as 348 nM.
Same read-out and setting: as for `O=C1NCN(c2ccccc2)C12CCN(Cc1ccccc1-c1cc(Cl)cc(Cl)c1)CC2`, the figure is 190 nM.
Regarding `O=C1NCN(c2ccccc2)C12CCN(Cc1ccccc1-c1cccs1)CC2`, the 50% inhibitory concentration (IC50) was 6 nM. Compared with the last compound, the IC50 is about 32-fold lower.
On the same count and under the same terms, as for `COC(=O)CN1CN(c2ccccc2)C2(CCN(Cc3ccccc3-c3cccs3)CC2)C1=O`, the figure is 1 nM.
